From article PMC8832507 (Molecular cancer therapeutics, 2021)

Columns and labels:
[1] = tested on: HCC1954 (Ag+) and MDA-MB-468 (Ag−) co-culture; experiment: Bystander co-culture assay; format: cell-based; conditions: 6 days, varying % Ag+ cells
HCC1954 cells = experiment: Cytotoxicity; format: cell-based; conditions: for ADC cytotoxic IC50 of T-PBD and T-CaliG compared with each other: after 6 days

Substance | Ag− cell bystander toxicity in co-culture (in words) ([1]; 50 pM ADC) | Cytotoxic IC50 of trastuzumab-payload conjugate (in words) (HCC1954 cells; HCC1954 cells, 6 days) | ADC cytotoxic IC50 of T-PBD and T-CaliG compared with each other (HCC1954 cells) | Ag− cell bystander toxicity in co-culture (in words) ([1]; 500 pM ADC)
T-CaliD: trastuzumab conjugated to calicheamicin D | bystander cell death with as low as 25% Ag+ cells | sub-picomolar |  | 
T-CaliG: trastuzumab conjugated to calicheamicin G |  |  | roughly similar | 
T-PBD |  |  | roughly similar | bystander cell death with as low as 25% Ag+ cells
